The results in this text go back to US11850234B2, “Enhancement of cancer treatment efficiency via the sphingosine-1-phosphate pathway” (priority 2017, dated 2023).

This test concerns CAM-grafted pancreas, lung and ovarian tumors. Kind of test: Neoadjuvant effect in the CAM (Chicken Chorioallantoic Model) with grafted tumors. Format: in vivo. The following applies: compared to CAM-grafted tumors not previously treated with the neoadjuvants. On the procedure: The neoadjuvant effect of benzylphthalazine and imidazole derivatives according to the present invention are assessed for their neoadjuvant effect against pancreas, lung and ovarian tumors.
The neoadjuvant effect is evaluated using the CAM (Chicken Chorioallantoic Model) as described by Sliwinska et al. (Sliwinska et al., Angiogenesis, 2014, 14(4), 779-804).

In the case of oxaliplatin, the “cytotoxic effect against CAM-grafted tumors pretreated with neoadjuvant” value was “enhanced”.
